# Source: US20060263355A1, “Treatment of bone disorders” (priority 2005, published 2006)
# Experiments:
# [1] = Bone effects in chronic OVX animals (Example 8); conditions: chronic OVX rats, treatment for 5 weeks
# [2] = Clinical study of rituximab in osteoporosis (Example 3); conditions: osteoporosis patients, IV
# [3] = Prevention of bone loss in acute OVX animals (Example 7); conditions: OVX rats, 35 days
Substance,"tests of femurs, tibiae and lumbar vertebrae 1 to 4 versus placebo-treated controls (bone formation) [1]","bone osteoblasts (biomarkers), bone densitometry and fracture rate versus placebo [2]",prevention of bone loss versus control groups [3]
"humanized 2H7: humanized CD20 antibody, or antigen-binding fragment, comprising at least CDR H3 of SEQ ID NO:12 and human VHIII framework",will show improvement in one or more of these tests,will improve bone osteoblasts as determined by biomarkers and improve bone densitometry and decrease fracture rate,effective versus the control groups in preventing bone loss
rituximab,will show improvement in one or more of these tests,will improve bone osteoblasts as determined by biomarkers and improve bone densitometry and decrease fracture rate,effective versus the control groups in preventing bone loss
